# Measurements taken from ChEMBL document CHEMBL3885861, “Open TG-GATES”.
# “And” between values parts separate entries of the source, which are not always exact repeats. Equal values may be shown once.
# Species: Rattus norvegicus
# Test: Open TG-GATES - Regimen: Single
# Format: toxicity, organism-based, Sprague-Dawley
# Parameters: regimen Single, gender Male, age 6 weeks
# Settings: in vivo; for LIVER: iv, tissue Liver, route intravenous injection; for TG: po, tissue Plasma, route gavage
# [1] = 0 mg/kg, 3 h, dose level Control
# [2] = 0 mg/kg, 6 h, dose level Control
# [3] = 0 mg/kg, 9 h, dose level Control
# [4] = 0 mg/kg, 24 h, dose level Control
smiles,measurement,setting,value
CC(C)C[C@H](NC(=O)[C@H](Cc1ccccc1)NC(=O)c1cnccn1)B(O)O [BORTEZOMIB],LIVER,[1],10.2 g
same,LIVER,[2],9.9 g
same,LIVER,[3],10 g
same,LIVER,[4],11.2 g
same,LIVER,"1 mg/kg, 3 h, dose level High",11.1 g
same,LIVER,"1 mg/kg, 9 h, dose level High",9.4 g
O=P1(N(CCCl)CCCl)NCCCO1 (stereo not drawn) [CYCLOPHOSPHAMIDE ANHYDROUS],TG,[1],42.6 mg/dL and 56.6 mg/dL
same,TG,[2],51.6 mg/dL and 65.2 mg/dL
same,TG,[3],52 mg/dL and 39.8 mg/dL
same,TG,[4],113.2 mg/dL and 99.8 mg/dL
same,TG,"2 mg/kg, 3 h, dose level Low",62.6 mg/dL
same,TG,"2 mg/kg, 6 h, dose level Low",60 mg/dL
same,TG,"2 mg/kg, 9 h, dose level Low",57.8 mg/dL
same,TG,"2 mg/kg, 24 h, dose level Low",102.8 mg/dL
same,TG,"5 mg/kg, 3 h, dose level Middle",40.4 mg/dL
same,TG,"5 mg/kg, 6 h, dose level Middle",70.4 mg/dL
same,TG,"5 mg/kg, 24 h, dose level Middle",119 mg/dL
same,TG,"15 mg/kg, 3 h, dose level High",70.4 mg/dL
same,TG,"15 mg/kg, 3 h, dose level Low",71.4 mg/dL
same,TG,"15 mg/kg, 6 h, dose level High",54.4 mg/dL
same,TG,"15 mg/kg, 6 h, dose level Low",41.2 mg/dL
same,TG,"15 mg/kg, 9 h, dose level High",31.4 mg/dL
same,TG,"15 mg/kg, 9 h, dose level Low",38.4 mg/dL
same,TG,"15 mg/kg, 24 h, dose level High",69.8 mg/dL
same,TG,"15 mg/kg, 24 h, dose level Low",83.8 mg/dL
same,TG,"50 mg/kg, 3 h, dose level Middle",78.4 mg/dL
same,TG,"50 mg/kg, 6 h, dose level Middle",48.8 mg/dL
same,TG,"50 mg/kg, 9 h, dose level Middle",19.4 mg/dL
same,TG,"50 mg/kg, 24 h, dose level Middle",58.8 mg/dL
same,TG,"150 mg/kg, 3 h, dose level High",44 mg/dL
same,TG,"150 mg/kg, 6 h, dose level High",28 mg/dL
same,TG,"150 mg/kg, 9 h, dose level High",31.2 mg/dL
same,TG,"150 mg/kg, 24 h, dose level High",45.4 mg/dL
